From US5262403A, “Glycosaminoglycan derivatives and their use as inhibitors of tumor invasiveness of metastatic profusion-II” (priority 1990, dated 1993)

Tested on: B16-BL6 melanoma cells

For “N-resulfated N- and O-desulfated heparin”, which “incorporation of 3H-thymidine to B16 cells” value is on record?
Its value is “no significant effects”.
